The target in experiment [1] is Nociceptin receptor (Homo sapiens) (UniProt P41146). Put plainly: Activity on Nociceptin/orphanin FQ (N/OFQ) receptor was determined by GTPgammaS functional assay using recombinant HEK293 cells. To be noted: filed as agonist.
The target in experiment [2] is Mu-type opioid receptor (Homo sapiens) (UniProt P35372). Put plainly: Activity was determined for the compound against the Mu opioid receptor by GTPgammaS functional assay using recombinant HEK293 cells; PA: Partial antagonist. Particulars: filed as antagonist.

Chains of the proteins cited; added tags and fusions are not shown.
UniProt P41146, whole entry: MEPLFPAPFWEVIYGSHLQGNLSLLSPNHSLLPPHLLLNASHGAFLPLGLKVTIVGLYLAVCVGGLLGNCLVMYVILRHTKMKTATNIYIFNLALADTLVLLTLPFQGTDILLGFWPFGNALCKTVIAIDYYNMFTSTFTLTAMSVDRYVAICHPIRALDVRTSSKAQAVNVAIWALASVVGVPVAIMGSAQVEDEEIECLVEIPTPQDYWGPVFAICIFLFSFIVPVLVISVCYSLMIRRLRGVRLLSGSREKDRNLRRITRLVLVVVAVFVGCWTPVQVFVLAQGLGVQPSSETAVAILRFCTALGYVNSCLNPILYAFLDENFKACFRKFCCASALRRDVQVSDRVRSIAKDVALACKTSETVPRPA
UniProt P35372, whole entry: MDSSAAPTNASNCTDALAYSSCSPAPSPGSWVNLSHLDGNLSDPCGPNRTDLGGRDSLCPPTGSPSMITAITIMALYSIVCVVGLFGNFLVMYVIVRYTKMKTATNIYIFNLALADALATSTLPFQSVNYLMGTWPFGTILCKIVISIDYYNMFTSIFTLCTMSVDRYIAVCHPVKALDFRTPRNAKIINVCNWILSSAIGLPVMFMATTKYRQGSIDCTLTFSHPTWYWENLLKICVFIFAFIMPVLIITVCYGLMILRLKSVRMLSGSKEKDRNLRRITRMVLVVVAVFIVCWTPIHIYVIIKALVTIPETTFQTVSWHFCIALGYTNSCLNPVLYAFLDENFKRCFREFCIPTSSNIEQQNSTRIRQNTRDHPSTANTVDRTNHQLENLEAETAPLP

Take `O=C1N[C@@H]2CCCC[C@H]2N1C1CCN(CCC(c2ccccc2)c2ccccc2)CC1`: the Activity result in experiment [1] is “Agonist”; in experiment [2], “Partial antagonist”.

These data come from ChEMBL document CHEMBL1147615, “Design and synthesis of novel small molecule N/OFQ receptor antagonists” (2004).
